Membrane permeability of cyclic peptides

Source: CycPeptMPDB (Li et al. 2023), which took these values from Townsend et al. 2020, doi:10.26434/chemrxiv.13335941.v1.

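Lipid, pH, incubation time, direction and concentration are not recorded in the data file. Other peptides of the study may be missing here. Entries at the database's floor value (log10 P of -10) are not listed.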

PAMPA measures passive passage through an artificial lipid membrane.
Values are log10 P with P in cm/s, so -5 is more permeable than -7.

SMILES | PAMPA (log10 cm/s)
CC(C)C[C@@H]1NC(=O)[C@H]2CCCN2C(=O)[C@@H](CC(C)C)N(C)C(=O)[C@H](CC(C)C)NC(=O)C[C@H](Cc2ccccc2)NC(=O)[C@H]2CCCN2C(=O)[C@H](Cc2ccccc2)NC1=O | -6.00
CC(C)C[C@@H]1NC(=O)[C@H](C)N(C)C(=O)[C@H](Cc2ccccc2)NC(=O)[C@@H](CC(C)C)N(C)C(=O)[C@@H]2CCCN2C(=O)CN(Cc2ccccc2)C1=O | -4.99
CCCN1CC(=O)N(Cc2ccccc2)CC(=O)N[C@@H](CC(C)C)C(=O)N2CCC[C@@H]2C(=O)N(C)[C@H](CC(C)C)C(=O)N[C@@H](Cc2ccccc2)C(=O)N2CCC[C@H]2C1=O | -5.71
CCCN1CC(=O)N[C@@H](CC(C)C)C(=O)N[C@H](CC(C)C)C(=O)N2CCC[C@H]2C(=O)N[C@H](CC(C)C)C(=O)N[C@@H](Cc2ccccc2)C1=O | -5.73
CC(C)C[C@@H]1C(=O)N[C@@H](Cc2ccccc2)C(=O)N2CCC[C@@H]2C(=O)N(C)[C@@H](C)C(=O)N(C)[C@@H](CC(C)C)C(=O)N(Cc2ccccc2)CC(=O)N2CCC[C@H]2C(=O)N1C | -5.85
CC(C)C[C@@H]1C(=O)N2CCC[C@H]2C(=O)N(C)[C@@H](CC(C)C)C(=O)N[C@@H](Cc2ccccc2)C(=O)N[C@@H](C)C(=O)N(C)[C@@H](CC(C)C)C(=O)N1C | -5.14
CC(C)C[C@@H]1NC(=O)[C@@H]2CCCN2C(=O)[C@H](CC(C)C)N(C)C(=O)[C@@H](CC(C)C)NC(=O)[C@H](C)N(C)C(=O)[C@@H]2CCCN2C(=O)[C@H](Cc2ccccc2)NC1=O | -6.77
CC(C)C[C@@H]1C(=O)N[C@@H](Cc2ccccc2)C(=O)N[C@@H](C)C(=O)N[C@H](CC(C)C)C(=O)N[C@H](CC(C)C)C(=O)N2CCC[C@H]2C(=O)N1C | -6.11
CC(C)C[C@@H]1C(=O)N[C@H](CC(C)C)C(=O)N2CCC[C@H]2C(=O)N[C@H](CC(C)C)C(=O)N[C@@H](Cc2ccccc2)C(=O)N[C@H](C)C(=O)N1C | -5.88
CC(C)C[C@H]1NC(=O)[C@H]2CCCN2C(=O)CN(Cc2ccccc2)C(=O)[C@@H](CC(C)C)NC(=O)[C@@H](C)NC(=O)[C@@H]2CCCN2C(=O)[C@H](Cc2ccccc2)NC1=O | -6.98
CC(C)C[C@@H]1C(=O)N[C@@H](Cc2ccccc2)CC(=O)N2CCC[C@H]2C(=O)N[C@H](CC(C)C)C(=O)N[C@@H](Cc2ccccc2)C(=O)N(C)[C@@H](C)C(=O)N1C | -5.93
CC(C)C[C@H]1NC(=O)[C@@H]2CCCN2C(=O)[C@H](CC(C)C)N(C)C(=O)CN(Cc2ccccc2)C(=O)[C@H](C)N(C)C(=O)[C@H]2CCCN2C(=O)[C@H](Cc2ccccc2)NC1=O | -6.06
CCCN1CC(=O)N(C)[C@H](CC(C)C)C(=O)N(Cc2ccccc2)CC(=O)N2CCC[C@@H]2C(=O)N[C@H](CC(C)C)C(=O)N[C@@H](Cc2ccccc2)C(=O)N2CCC[C@H]2C1=O | -5.64
CC(C)C[C@@H]1C(=O)N[C@@H](Cc2ccccc2)CC(=O)N2CCC[C@H]2C(=O)N[C@H](CC(C)C)C(=O)N[C@@H](Cc2ccccc2)C(=O)N2CCC[C@H]2C(=O)N[C@@H](Cc2ccccc2)CC(=O)N1C | -5.68
CC(C)C[C@@H]1C(=O)N[C@@H](Cc2ccccc2)C(=O)N2CCC[C@@H]2C(=O)N(C)[C@@H](C)C(=O)N(C)[C@H](CC(C)C)C(=O)N(C)[C@@H](CC(C)C)C(=O)N2CCC[C@@H]2C(=O)N1C | -5.16
CCCN1CC(=O)N(C)[C@H](CC(C)C)C(=O)N[C@@H](CC(C)C)C(=O)N2CCC[C@@H]2C(=O)N[C@H](CC(C)C)C(=O)N[C@@H](Cc2ccccc2)C1=O | -5.30
CC(C)C[C@@H]1NC(=O)C[C@H](Cc2ccccc2)NC(=O)[C@H]2CCCN2C(=O)[C@H](Cc2ccccc2)NC(=O)[C@H](CC(C)C)NC(=O)[C@H]2CCCN2C(=O)[C@H](CC(C)C)NC1=O | -5.74
CC(C)C[C@H]1C(=O)N[C@@H](Cc2ccccc2)C(=O)N[C@H](C)C(=O)N(C)[C@@H](CC(C)C)C(=O)N(Cc2ccccc2)CC(=O)N2CCC[C@@H]2C(=O)N1C | -5.34
CC(C)C[C@@H]1NC(=O)[C@@H](C)NC(=O)[C@H](Cc2ccccc2)NC(=O)[C@@H](CC(C)C)NC(=O)[C@@H]2CCCN2C(=O)[C@H](CC(C)C)N(C)C1=O | -7.12
CC(C)C[C@@H]1NC(=O)[C@@H](CC(C)C)NC(=O)[C@@H](C)N(C)C(=O)[C@@H]2CCCN2C(=O)[C@H](Cc2ccccc2)NC(=O)[C@H](CC(C)C)N(C)C(=O)[C@H]2CCCN2C1=O | -5.24
CC(C)C[C@@H]1C(=O)N2CCC[C@H]2C(=O)N[C@H](CC(C)C)C(=O)N[C@@H](Cc2ccccc2)C(=O)N[C@H](C)C(=O)N[C@H](CC(C)C)C(=O)N1C | -5.69
CCCN1CC(=O)N(C)[C@H](CC(C)C)C(=O)N(C)[C@H](CC(C)C)C(=O)N2CCC[C@@H]2C(=O)N[C@@H](CC(C)C)C(=O)N[C@@H](Cc2ccccc2)C(=O)N2CCC[C@H]2C1=O | -5.57
CC(C)C[C@@H]1C(=O)N[C@@H](Cc2ccccc2)C(=O)N2CCC[C@H]2C(=O)N(C)[C@@H](C)C(=O)N(Cc2ccccc2)CC(=O)N(C)[C@@H](CC(C)C)C(=O)N2CCC[C@H]2C(=O)N1C | -5.74
CC(C)C[C@H]1C(=O)N(Cc2ccccc2)CC(=O)N2CCC[C@H]2C(=O)N(C)[C@@H](CC(C)C)C(=O)N[C@@H](Cc2ccccc2)C(=O)N2CCC[C@H]2C(=O)N[C@H](C)C(=O)N1C | -6.15

2 of these entries, quoted again:

SMILES | PAMPA (log10 cm/s)
CC(C)C[C@@H]1NC(=O)[C@H]2CCCN2C(=O)[C@@H](CC(C)C)N(C)C(=O)[C@H](CC(C)C)NC(=O)C[C@H](Cc2ccccc2)NC(=O)[C@H]2CCCN2C(=O)[C@H](Cc2ccccc2)NC1=O | -6.00
CC(C)C[C@@H]1NC(=O)[C@@H](CC(C)C)NC(=O)[C@@H](C)N(C)C(=O)[C@@H]2CCCN2C(=O)[C@H](Cc2ccccc2)NC(=O)[C@H](CC(C)C)N(C)C(=O)[C@H]2CCCN2C1=O | -5.24